PubChem BioAssay AID871 (The Scripps Research Institute Molecular Screening Center, 2007)
The entries are a selection whose mix differs from that of the whole data set. Calls of active or inactive are those of the source.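 How the source made its calls: active means activation above the screen-wide mean of compound activation plus 3 SD (cut at about 130% in these data); inactive means the rest.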

experiment: enhancers of STAT3 transcriptional signaling – U3A cells, luciferase, luminescence, MLSCN library, primary screen (AID 871); conditions: IL-6 STAT3-luciferase reporter, at 5.6 µM, active compounds read high, 100% = signal with IL-6 EC80 alone;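 further: 0% = background luminescence of wells with medium and substrate only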
Summary of the method: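 Material: human STAT1-deficient U3A cells with stable STAT3-luciferase reporter / Probe or stimulus: IL-6 stimulus at 33 ng/mL final / Schedule: 1 h compound pre-exposure, 6 h IL-6 stimulation, 37 °C / Technique: luminescence / Read-out basis: percent of IL-6-only median luminescence / Control set: IL-6-only high control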

| SMILES | activation (% of control) |
| --- | --- |
| O=[N+]([O-])c1ccc2c(c1)nnn2O | inactive: 106% |
| CCOP1(=S)c2c(C)nn(CCC#N)c2N=C(c2ccc(F)cc2)N1C (centres undefined) | inactive: 106% |
| CCOP1(=S)c2c(C)nn(CCC#N)c2N=C(c2ccccc2F)N1C (centres undefined) | inactive: 108% |
| O=P(Nc1nccs1)(Oc1ccccc1)Oc1ccccc1 | inactive: 87.4% |
| O=P(Nc1nccs1)(c1ccccc1)c1nc2ccccc2s1 (centres undefined) | inactive: 114% |
| Cc1ccc(NCCc2c([N+](=O)[O-])cc([N+](=O)[O-])cc2[N+](=O)[O-])cc1 | inactive: 86.8% |
| COc1cc(C2NCCC3(OCCO3)C2(C)C)cc(OC)c1OC (centres undefined) | inactive: 92% |
| CCOP(=O)(Nc1cccc2ccccc12)OCC | inactive: 107% |
| COc1cc(C(=O)NCC2(N3CCOCC3)CCCCC2)cc(Cl)c1OC(C)C | inactive: 122% |
| Cc1cccc(OCC(=O)OC2CN3CCC2CC3)c1 (centres undefined) | inactive: 93.4% |
| CC1(CBr)Cn2c(nc3ccccc3c2=O)S1 (centres undefined) | inactive: 93% |
| CC(C)/C=N\N=C(\N)N[N+](=O)[O-] | inactive: 98.5% |
| O=P1(Nc2ccccn2)COc2ccccc2OC1 | inactive: 104% |
| Clc1n[nH]nc1-c1nn[nH][15n]1 | inactive: 98.4% |
| O=P1(Nc2ncccn2)COc2ccccc2OC1 | inactive: 103% |
| Cc1ccc(OCC(=O)OC2CN3CCC2CC3)cc1 (centres undefined) | inactive: 110% |
| O=P1(Nc2ccc(Br)cn2)COc2ccccc2OC1 | inactive: 95.2% |
| Cc1nn(-c2ccccc2)c2c1P(=O)(N1CCOCC1)N(C)C(c1ccccc1)=N2 (centres undefined) | inactive: 94.2% |
| CC1CCC(C(C)C)C(OP(=O)(Nc2ccccn2)c2ccccc2)C1 (centres undefined) | inactive: 105% |
| CN(C)C1(CNC(=O)c2ccc(S(C)(=O)=O)cc2)CCCCC1 | inactive: 104% |
| O=P(Nc1ccccn1)(c1cccc2ccccc12)c1cccc2ccccc12 | inactive: 106% |
| Cc1cc(SC(NC=O)C(Cl)(Cl)Cl)ncn1 (centres undefined) | inactive: 103% |
| Cc1cc(SC(NC(=O)c2ccccc2)C(Cl)(Cl)Cl)nc(C(C)C)n1 (centres undefined) | inactive: 98.7% |
| CCC(C)N(CC(C)C)C(=S)SC(NC(C)=O)C(Cl)(Cl)Cl (centres undefined) | inactive: 99.2% |
| COP1(=S)c2c(C)nn(CCC#N)c2N=C(c2ccc(F)cc2)N1C (centres undefined) | inactive: 104% |
| O=C(COc1ccccc1)OC1CN2CCC1CC2 (centres undefined) | inactive: 101% |
| COc1ccc(N/C(=N/P(=O)(N2CCOCC2)N2CCOCC2)N2CCOCC2)cc1 | inactive: 99.5% |

| SMILES | activation (% of control) |
| --- | --- |
| O=C(OC1CN2CCC1CC2)C12CC3CC(CC(C3)C1)C2 (centres undefined) | inactive: 118% |
| Cc1cc(=O)[nH]c(N[N+](=O)[O-])n1 | inactive: 104% |
| Cc1c2c(nc3ccccc13)SC(C(Cl)Cl)C2 (centres undefined) | inactive: 78.5% |
| COc1ccc2nc(NP(=O)(c3ccccc3)c3ccccc3)sc2c1 | inactive: 104% |
| ClCCSc1nnc(-c2cccnc2)o1 | inactive: 106% |
| CC(C)NC(=O)NP(=O)(Oc1ccccc1)Oc1ccccc1 | inactive: 110% |
| CCN(CC)C(=S)SC(NC=O)C(Cl)(Cl)Cl (centres undefined) | inactive: 90.7% |
| O=[N+]([O-])c1cc([N+](=O)[O-])c(-c2ccn[nH]2)s1 | inactive: 97.7% |
| Cc1ccc2nc3c(c(C)c2c1)CC(C(Cl)Cl)S3 (centres undefined) | inactive: 87.8% |
| CCN(N=Nc1nonc1N)c1nonc1N | inactive: 101% |
| Cc1cc(SC(NC(=O)c2ccc(F)cc2)C(Cl)(Cl)Cl)ncn1 (centres undefined) | inactive: 103% |
| CCOP(=O)(Nc1ccccc1)OCC | inactive: 102% |
| CC(C)CC(=O)NC(Sc1ccc(Cl)cc1)C(Cl)(Cl)Cl (centres undefined) | inactive: 111% |
| Oc1ccccc1CNc1ccccn1 | inactive: 104% |
| O=C(NC(Sc1ccncn1)C(Cl)(Cl)Cl)c1ccccc1 (centres undefined) | inactive: 104% |
| Cc1c2non([O-])c-2c(C)[n+](=O)[n+]1[O-] | inactive: 99.4% |
| NC(=O)c1cc([N+](=O)[O-])cc([N+](=O)[O-])c1N | inactive: 98.9% |
| Cc1ccc(N/C(=N/P(=O)(N2CCOCC2)N2CCOCC2)N2CCOCC2)cc1 | inactive: 105% |
| COc1ccccc1OP(=O)(Nc1ccc(C)cn1)Oc1ccccc1OC | inactive: 111% |
| CN1CCCC(OC(=O)C(c2ccccc2)c2ccccc2)C1 (centres undefined) | inactive: 107% |
| Clc1ccc(Cl)c(NC2=NCC(CBr)S2)c1 (centres undefined) | inactive: 94.4% |
| CCN(/C(=N/P(=O)(N1CCOCC1)N1CCOCC1)N1CCOCC1)c1ccc(OC)cc1 | inactive: 95.6% |
| CC(C)=N/N=C(\N)N[N+](=O)[O-] | inactive: 100% |
| CN(C)C(=O)OCCc1n(C)cc[n+]1C | inactive: 103% |
| CC1CCN(C(=O)Oc2c(Cl)cc(Cl)c3cccnc23)CC1 | inactive: 96.5% |
| COc1ccc(C2=NCC(CBr)S2)cc1 (centres undefined) | inactive: 105% |
| O=[N+]([O-])c1cccc2n[nH]nc12 | inactive: 106% |

| SMILES | activation (% of control) |
| --- | --- |
| CC(=O)N1C2C3N(C(C)=O)C1C1N(C(C)=O)C(C(N1C(C)=O)N3C(C)=O)N2C(C)=O | inactive: 98.9% |
| Cc1ccc(NP(=O)(Oc2ccccc2)Oc2ccccc2)nc1 | inactive: 109% |
| CCc1nc2c(n1)c1c(non1O)c1c2no[n+]1[O-] | inactive: 88% |
| O=[N+]([O-])c1cc([N+](=O)[O-])c(CCNc2ccccc2)c([N+](=O)[O-])c1 | inactive: 73.9% |
| O=[N+]([O-])c1ncn(CCn2ncnc2[N+](=O)[O-])n1 | inactive: 97.6% |
| CC(=O)NC(SC(=S)N(C)C)C(Cl)(Cl)Cl (centres undefined) | inactive: 107% |
| C(Cc1nn[nH]n1)Cc1nn[nH]n1 | inactive: 87.2% |
| O=C(OC1CN2CCC1CC2)c1cccc(Cl)c1 (centres undefined) | inactive: 98% |
| O=P(Nc1ccccn1)(c1ccc(Br)cc1)c1ccc(Br)cc1 | inactive: 104% |
| CC(C)C(=O)NC(Sc1ccccc1)C(Cl)(Cl)Cl (centres undefined) | inactive: 107% |
| O=P(Nc1nccs1)(c1ccccc1)c1ccccc1 | inactive: 101% |
| c1nnnn1CCn1cnnn1 | inactive: 100% |
| CC(=O)Nc1ccc(Oc2c([N+](=O)[O-])cc([N+](=O)[O-])cc2[N+](=O)[O-])cc1 | inactive: 94.1% |
| O=P1(Nc2nc3ccc(Cl)cc3s2)COc2ccccc2O1 (centres undefined) | inactive: 99.3% |
| CCOc1ccc(C2=NCC(CBr)S2)cc1 (centres undefined) | inactive: 97% |
| CC(C)(C)C(=O)NC(Sc1ccccc1)C(Cl)(Cl)Cl (centres undefined) | inactive: 106% |
| COC(=O)c1cc2c(s1)N=C(c1ccccc1)N(C)P2(=O)N1CCOCC1 (centres undefined) | inactive: 108% |
| CC(=O)NC(SC(=S)N(CC(C)C)CC(C)C)C(Cl)(Cl)Cl (centres undefined) | inactive: 110% |
| Cc1ccc(OP(=O)(Nc2ccccn2)Oc2ccc(C)cc2)cc1 | inactive: 103% |
| CCC(=O)N1C2C3N(C(=O)CC)C1C1N(C(=O)CC)C(C(N1C(=O)CC)N3C(=O)CC)N2C(=O)CC | inactive: 95.7% |
| O=c1c2cc([N+](=O)[O-])ccc2[nH]c2c([N+](=O)[O-])cc([N+](=O)[O-])cc12 | inactive: 51.1% |
| CCNC(=S)/N=C(\N)N[N+](=O)[O-] | inactive: 107% |
| O=C(NC1CCS(=O)(=O)C1)NP(=S)(Oc1ccccc1)Oc1ccccc1 (centres undefined) | inactive: 99.6% |
| c1ccc(-c2nn[nH]n2)c(-c2nn[nH]n2)c1 | inactive: 97.2% |
| CCOC(=O)NC(Sc1ccccc1)C(Cl)(Cl)Cl (centres undefined) | inactive: 99.7% |
